In brackets after ≈: the same amount, converted by molar mass.

In the experiment the test system is Bacillus subtilis ATCC 6633. As to the kind of experiment: agar serial dilution test, MIC. Conditions: 24 hours at 37°C. Type of experiment: cell-based.

Usually MIC stands for the least concentration at which growth counts as inhibited. Low values mean greater potency, high ones weaker potency. `CC1=C(C(=O)O)N2C(=O)[C@@H](NC(=O)[C@H](NC(=O)NP(=O)(Oc3ccccc3)Oc3ccccc3)c3ccccc3)[C@H]2SC1` came in with an MIC of 6 mg/L (≈ 9.64 µM).

For the compound `CC1(C)S[C@@H]2[C@H](NC(=O)[C@H](NC(=O)NP(=O)(Nc3ccccc3)Nc3ccccc3)c3ccccc3)C(=O)N2[C@H]1C(=O)O`, the minimal inhibitory concentration (MIC) is 0.12 mg/L (≈ 0.193 µM).

On to `CCOP(=O)(NC(=S)N[C@@H](C(=O)N[C@@H]1C(=O)N2[C@@H]1SC(C)(C)[C@@H]2C(=O)O)c1ccccc1)OCC`, for which the MIC was 0.25 mg/L (≈ 0.459 µM).

The compound `CCOP(=O)(NC(=O)N[C@@H](C(=O)N[C@@H]1C(=O)N2[C@@H]1SC(C)(C)[C@@H]2C(=O)O)c1ccccc1)OCc1ccccc1` (stereo partly shown) yielded an MIC of 0.25 mg/L (≈ 0.423 µM).

For `CCSP(=O)(NC(=O)N[C@@H](C(=O)N[C@@H]1C(=O)N2[C@@H]1SC(C)(C)[C@@H]2C(=O)O)c1ccccc1)SCC`, the minimum inhibitory concentration (MIC) worked out at 0.25 mg/L (≈ 0.446 µM).

`CCOP(=O)(NC(=O)N[C@@H](C(=O)N[C@@H]1C(=O)N2[C@@H]1SC(C)(C)[C@@H]2C(=O)O)c1ccccc1)Nc1ccccc1` (stereo partly shown): the minimum inhibitory concentration (MIC) was 1 mg/L (≈ 1.74 µM). This MIC lies about 4-fold higher than the previous one.

On to `CCOC(=O)NNP(=O)(NC(=O)N[C@@H](C(=O)N[C@@H]1C(=O)N2[C@@H]1SC(C)(C)[C@@H]2C(=O)O)c1ccccc1)OCC` (stereo partly shown), for which the MIC is 0.5 mg/L (≈ 0.852 µM).

Compound `CCOP(=O)(NC(=O)N[C@@H](C(=O)N[C@@H]1C(=O)N2C(C(=O)O)=C(C)CS[C@H]12)c1ccccc1)OCC` displayed a minimum inhibitory concentration (MIC) of 6 mg/L (≈ 11.4 µM). This MIC lies about 12-fold higher than the previous one.

Consider `CN(C)P(=O)(NC(=O)N[C@@H](C(=O)N[C@@H]1C(=O)N2[C@@H]1SC(C)(C)[C@@H]2C(=O)O)c1ccccc1)N(C)C`, for which the minimum inhibitory concentration (MIC) stood at 1 mg/L (≈ 1.9 µM). This MIC lies about 6-fold lower than the previous one.

As to `CCOP(=S)(NC(=S)N[C@@H](C(=O)N[C@@H]1C(=O)N2[C@@H]1SC(C)(C)[C@@H]2C(=O)O)c1ccccc1)OCC`, the MIC is 3 mg/L (≈ 5.35 µM).

As for `CC1(C)S[C@@H]2[C@H](NC(=O)[C@H](NC(=O)NP(=O)(OCc3ccccc3)c3ccccc3)c3ccccc3)C(=O)N2[C@H]1C(=O)O` (stereo partly shown), the minimum inhibitory concentration (MIC) turned out to be 0.5 mg/L (≈ 0.803 µM).

Consider `CCOP(=O)(NC(=O)Nc1ccccc1)N[C@@H](C(=O)N[C@@H]1C(=O)N2[C@@H]1SC(C)(C)[C@@H]2C(=O)O)c1ccccc1` (stereo partly shown), for which the minimal inhibitory concentration (MIC) came to 0.5 mg/L (≈ 0.869 µM).

Regarding `CC1(C)S[C@@H]2[C@H](NC(=O)[C@H](NC(=S)NP(=S)(Oc3ccccc3)Oc3ccccc3)c3ccccc3)C(=O)N2[C@H]1C(=O)O`, the MIC worked out at 0.5 mg/L (≈ 0.761 µM).

`CC1(C)S[C@@H]2[C@H](NC(=O)[C@H](NC(=O)NP(=O)(c3ccccc3)c3ccccc3)c3ccccc3)C(=O)N2[C@H]1C(=O)O`: the minimum inhibitory concentration (MIC) was determined as 0.3 mg/L (≈ 0.506 µM).

`CC1(C)S[C@@H]2[C@H](NC(=O)[C@H](NC(=O)NP(=O)(O)O)c3ccccc3)C(=O)N2[C@H]1C(=O)O` came in with an MIC of 0.5 mg/L (≈ 1.06 µM). This MIC lies about 1.7-fold higher than the previous one.

`CCOP(=O)(NC(=O)N[C@@H](C(=O)N[C@@H]1C(=O)N2[C@@H]1SC(C)(C)[C@@H]2C(=O)O)c1ccccc1)OCC`: the minimal inhibitory concentration (MIC) turned out to be 0.5 mg/L (≈ 0.946 µM).

Take `CC1(C)S[C@@H]2[C@H](NC(=O)[C@H](NC(=S)NP(=O)(Oc3ccccc3)Oc3ccccc3)c3ccccc3)C(=O)N2[C@H]1C(=O)O`: the MIC amounted to 0.25 mg/L (≈ 0.39 µM). Against the preceding compound, the MIC is about 2-fold lower.

`CC1(C)S[C@@H]2[C@H](NC(=O)[C@H](NC(=O)NP(=O)(OCc3ccccc3)OCc3ccccc3)c3ccccc3)C(=O)N2[C@H]1C(=O)O` had an MIC of 0.25 mg/L (≈ 0.383 µM).

Compound `CC1(C)S[C@@H]2[C@H](NC(=O)[C@H](NC(=O)NP(=O)(Oc3ccccc3)Oc3ccccc3)c3ccccc3)C(=O)N2[C@H]1C(=O)O` displayed an MIC of 0.06 mg/L (≈ 0.0961 µM).

The compound `CC1(C)S[C@@H]2[C@H](NC(=O)[C@H](NC(=S)NP(=O)(c3ccccc3)c3ccccc3)c3ccccc3)C(=O)N2[C@H]1C(=O)O` came in with a minimum inhibitory concentration (MIC) of 0.5 mg/L (≈ 0.821 µM).

`CC1(C)S[C@@H]2[C@H](NC(=O)[C@H](NC(=O)NP(=S)(Oc3ccccc3)Oc3ccccc3)c3ccccc3)C(=O)N2[C@H]1C(=O)O` gave a minimum inhibitory concentration (MIC) of 0.25 mg/L (≈ 0.39 µM).

For the compound `CC1(C)S[C@@H]2[C@H](NC(=O)[C@H](NC(=O)NP(C)(C)=O)c3ccccc3)C(=O)N2[C@H]1C(=O)O`, the minimum inhibitory concentration (MIC) was found to be 0.25 mg/L (≈ 0.534 µM).

The compound `CN(C)P(=O)(NC(=S)N[C@@H](C(=O)N[C@@H]1C(=O)N2[C@@H]1SC(C)(C)[C@@H]2C(=O)O)c1ccccc1)N(C)C` registered an MIC of 1 mg/L (≈ 1.84 µM).

Regarding `CCOP(=O)(O)NC(=O)N[C@@H](C(=O)N[C@@H]1C(=O)N2C(C(=O)O)=C(C)CS[C@H]12)c1ccccc1`, the MIC amounted to 25 mg/L (≈ 50.2 µM).

In turn, `CCOP(=S)(NC(=O)N[C@@H](C(=O)N[C@@H]1C(=O)N2[C@@H]1SC(C)(C)[C@@H]2C(=O)O)c1ccccc1)OCC` displayed an MIC of 0.25 mg/L (≈ 0.459 µM). Against the preceding compound, the MIC is about 100-fold lower.

(Values after patent US3945994A, “Novel acid compounds” (Gist-Brocades N.V., priority 1973, dated 1976).)
